Patent US20210161997A1, “TREATING DISEASES VIA TARGETED MODULATION OF GENE SIGNALING NETWORKS” (Camp4 Therapeutics Corporation, priority 2018, published 2021)
Structures can show the parent of a compound that is named as a salt.

Key:
Assay type in all cases: cell-based
ANGPTL3 = assay: RNA-seq of ANGPTL3 expression in compound-treated primary human hepatocytes; settings: additional compounds (Table 13)
Protocol: (§1) Human hepatocytes were obtained from two donors from Massachusetts General Hospital, namely MGH54 and MGH63, and one donor from Lonza, namely HUM4111B. Cryopreserved hepatocytes were cultured in plating media for 16 hours, transferred to maintenance media for 4 hours. Cultured on serum-free media for 2 hours, then a compound was added. The hepatocytes were maintained on the serum-free media for 16 hours prior to gene expression analysis. Primary human hepatocytes were stored in the vapor phase of a liquid nitrogen freezer (about −130° C.).
(§2) Human hepatocytes cultured as described above were plated in 24-well format, adding 375,000 cells per well in a volume of 500 ul plating medium. Four hours before treatment, cells were washed with PBS and the medium was changed to either: fresh maintenance medium (complete) or modified maintenance medium.
Compound stocks were prepared at 1000× final concentration and added in a 2-step dilution to the medium to reduce risk of a compound precipitating out of solution when added to the cells, and to ensure reasonable pipetting volumes. One at a time, each compound was first diluted 10-fold in warm (about 37° C.) modified maintenance medium (initial dilution=ID), mixed by vortexing, and the ID was diluted 100-fold into the cell culture (e.g. 5.1 ul into 1 well of a 24-well plate containing 0.5 mL medium). The plate was mixed by carefully swirling and after all wells were treated and returned to the incubator overnight. If desired, separate plates/wells were treated with vehicle-only controls and/or positive controls. If using multi-well plates, controls were included on each plate. After about 18 hours, cells were harvested for further analysis, e.g., ChIP-seq, RNA-seq, ATAC-seq, etc. […]
(§3) For mRNA isolation and library prep, the NEBNext Poly(A) mRNA Magnetic Isolation Module and Directional Prep kit was used. RNA isolated from cells above was quantified, and prepared in […] of each sample in 50 μl of nuclease-free water. […]
All pass filter reads from each sample were mapped against the human genome (assembly GRCh38/GCA_000001405.15 “no alt” analysis set merged with hs38d1/GCA_000786075.2) using two pass mapping via STAR version 2.5.3a (alignment parameters alignIntronMin=20; alignIntronMax=1000000; outFilterMismatchNmax=999; outFilterMismatchNoverLmax=0.05; outFilterType=BySJout; outFilterMultimapNmax=20; alignSJoverhangMin=8; alignSJDBoverhangMin=1; alignMatesGapMax=1000000) (Dobin et al., Bioinformatics (2012) 29(1):15-21). […] Standard QC were applied (read integrity, mapping statistics, library complexity, fragment bias) to remove unsatisfactory samples.

SERPINC1 = assay: RNA-seq of SERPINC1 expression in compound-treated primary human hepatocytes; settings: significance FPKM ≥1, log 2(fold change) ≥0.5, q-value ≤0.05
Protocol: (§4) Human hepatocytes were obtained from two donors from Massachusetts General Hospital, namely MGH54 and MGH63, and one donor from Lonza, namely HUM4111B. Cryopreserved hepatocytes were cultured in plating media for 16 hours, transferred to maintenance media for 4 hours. Cultured on serum-free media for 2 hours, then a compound was added. The hepatocytes were maintained on the serum-free media for 16 hours prior to gene expression analysis. Primary human hepatocytes were stored in the vapor phase of a liquid nitrogen freezer (about -130° C.). Human hepatocytes cultured as described above were plated in 24-well format, adding 375,000 cells per well in a volume of 500 ul plating medium. Four hours before treatment, cells were washed with PBS and the medium was changed to either: fresh maintenance medium (complete) or modified maintenance medium. […] RNA isolated from cells above was quantified, and prepared in […] of each sample in 50 μl of nuclease-free water. […] Standard QC were applied (read integrity, mapping statistics, library complexity, fragment bias) to remove unsatisfactory samples. […] RNA-seq signals were also normalized by read depth and visualized using the UCSC browser. […] Fold change was calculated by dividing the level of expression in the cell system that had been perturbed by the level of expression in an unperturbed system.

UGT1A1 = assay: RNA-seq of UGT1A1 expression in compound-treated primary human hepatocytes
Protocol: as §1, §2
Compound stocks were prepared at 1000× final concentration and added in a 2-step dilution to the medium to reduce risk of a compound precipitating out of solution when added to the cells, and to ensure reasonable pipetting volumes. One at a time, each compound was first diluted 10-fold in warm (about 37° C.) modified maintenance medium (initial dilution=ID), mixed by vortexing, and the ID was diluted 100-fold into the cell culture (e.g. 5.1 ul into 1 well of a 24-well plate containing 0.5 mL medium). […]
as §3
Standard QC were applied (read integrity, mapping statistics, library complexity, fragment bias) to remove unsatisfactory samples. […] RNA-seq signals were also normalized by read depth and visualized using the UCSC browser. […]
RNA-seq was performed to determine the effects of the compounds on the expression of the target genes in hepatocytes. Fold change was calculated by dividing the level of expression in the cell system that had been perturbed by the level of expression in an unperturbed system. […]

SLC37A4 = assay: RNA-seq of SLC37A4 expression in compound-treated primary human hepatocytes
Protocol: as §1, §2
Compound stocks were prepared at 1000× final concentration and added in a 2-step dilution to the medium to reduce risk of a compound precipitating out of solution when added to the cells, and to ensure reasonable pipetting volumes. […]
as §3

JAG1 = assay: RNA-seq of JAG1 expression in compound-treated primary human hepatocytes
Protocol: as §4

NOTCH2 = assay: RNA-seq of NOTCH2 expression in compound-treated primary human hepatocytes
Protocol: as §4

| Molecule | ANGPTL3-LINEAR FOLD CHANGE (ANGPTL3) | UGT1A1 Fold Change (Log2) (UGT1A1) | also measured |
| --- | --- | --- | --- |
| CCCCNc1cc(C(=O)O)cc(S(N)(=O)=O)c1Oc1ccccc1 [Bumetanide] | 0.5 | – | – |
| CC1(COc2ccc3c(c2)ncn3-c2ccc3cccc(N4CCC(N)CC4)c3n2)COC1 [Crenolanib] | – | 0.89 | SERPINC1 Fold Change (Log2) (SERPINC1): 1.31 Log2 |
| CCN(CC)CCCC(C)Nc1ccnc2cc(Cl)ccc12 (stereo not shown) [Chloroquine Phosphate, Chloroquine phosphate] | 0.4538 | – | – |
| C1=C/COCc2cc(ccc2OCCN2CCCC2)Nc2nccc(n2)-c2cccc(c2)COC/1 [Pacritinib (SB1518), Pacritinib] | – | 1.58 | SERPINC1 Fold Change (Log2) (SERPINC1): 2.15 Log2; SLC37A4 Fold Change (Log2) (SLC37A4): 0.93 Log2 |
| CCN(CC)Cc1cc(Nc2ccnc3cc(Cl)ccc23)ccc1O [Amodiaquine dihydrochloride dihydrate] | 0.4175 | – | – |
| O=S(=O)(c1ccccc1)N(CC(F)(F)F)c1ccc(C(O)(C(F)(F)F)C(F)(F)F)cc1 [T0901317] | 2.848 | 0.64 | – |
| BMP2: BMPR1A agonist/activator, TGF beta signaling; listed twice (protein, UniProt P12643 283-396, looked up) Bone morphogenetic protein 2: QAKHKQRKRLKSSCKRHPLYVDFSDVGWNDWIVAPPGYHAFYCHGECPFPLADHLNSTNHAIVQTLVNSVNSKIPKACCVPTELSAISMLYLDENEKVVLKNYQDMVVEGCGCR | – | – | JAG1 Fold Change (Log2) (JAG1; primary human hepatocytes): 0.99 Log2; Significant modulation of JAG1 (in words) (JAG1; summary of Table 6): significantly modulate only JAG1; NOTCH2 Fold Change (Log2) (NOTCH2): 0 Log2 |
